Tested on: cerebral edema in rats following bilateral cortical contusion
Test: Cerebral edema assay after bilateral cortical contusion
Assay type: in vivo, rat
Conditions: i.v. at 4 mg/kg

CC(=O)[C@H]1CC[C@H]2[C@@H]3CCC4=C/C(=N/O)CC[C@]4(C)[C@H]3CC[C@]12C [Compound 2, 1-((8S,9S,10R,13S,14S,17S,E)-3-(Hydroxyimino)-10,13-dimethyl-2,3,6,7,8,9,10,11,12,13,14,15,16,17-tetradecahydro-1H-cyclopenta[a]phenanthren-17-yl)ethanone]
therapeutic benefit in model of rat edema (TBI induced): comparable to progesterone
